Test results taken from US20110275576A1 (published 2011).

Tested on: A549 cells
Test: MTS assay, proliferation of A549 cells
Format: cell-based, human
Details: statement on Table 1

Structure (SMILES): CC1=C2C[C@H]3[C@@H](CC=C4C[C@@H](O)CC[C@@]43C)[C@@H]2CC[C@]12O[C@@H]1C[C@H](C)CN[C@H]1[C@H]2C [cyclopamine, reference compound]
- proliferation of A549 cells: reduced the proliferation of A549 cells
